{
  "sequences": {"note": "By UniProt entry, the sequences of proteins in these tests, tags left out.", "UniProt P34913, whole entry": "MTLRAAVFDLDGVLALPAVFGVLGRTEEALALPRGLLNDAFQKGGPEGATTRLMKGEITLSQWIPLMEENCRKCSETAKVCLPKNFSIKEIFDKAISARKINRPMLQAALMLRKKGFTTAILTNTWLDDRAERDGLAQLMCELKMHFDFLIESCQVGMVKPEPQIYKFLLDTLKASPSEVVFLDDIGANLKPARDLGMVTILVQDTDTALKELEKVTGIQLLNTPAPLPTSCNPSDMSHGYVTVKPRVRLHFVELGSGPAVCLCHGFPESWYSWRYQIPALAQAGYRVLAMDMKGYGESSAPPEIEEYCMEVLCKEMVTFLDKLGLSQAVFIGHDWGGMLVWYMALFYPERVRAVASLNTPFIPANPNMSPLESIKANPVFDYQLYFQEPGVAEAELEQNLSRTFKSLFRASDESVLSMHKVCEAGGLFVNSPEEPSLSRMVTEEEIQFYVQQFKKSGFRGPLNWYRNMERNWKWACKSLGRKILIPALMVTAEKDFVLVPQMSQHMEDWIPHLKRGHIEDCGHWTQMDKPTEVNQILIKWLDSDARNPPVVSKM"},
  "source": "patent US20260224548A1",
  "about": "(priority 2022, published 2026)",
  "molecular_target": "HsEH (Homo sapiens, UniProt P34913)",
  "format": "biochemical",
  "settings": "PHOME substrate 50 μM, sEH 400 ng/ml, 37° C., 10 min, fluorescence 330/465 nm; read-out: HsEH IC50 (nM) Inhibitory activity against HsEH",
  "description": "Detection principle: a specific substrate, (3-phenyl-oxy)-acetic acid cyano-(6-methoxy-naphthalen-2-yl)methyl ester, namely PHOME, is non-fluorescent but can be hydrolyzed under the action of sEH enzyme to generate a product 6-methoxy-2-naphthaldehyde. The 6-methoxy-2-naphthaldehyde can emit fluorescence with a wavelength of 465 nm under 330 nm light wave excitation, and an intensity of the detected fluorescence signal is inversely proportional to an inhibitory effect on the sEH enzyme. Based on the above principle, the inhibition rates of samples with different concentrations were calculated compared with the positive control group. The IC50 value of the compound was calculated based on the inhibition rate and concentration using SPSS 20 software.\n25 mM Tris-HCl buffer (pH=7.4, containing 0.1 mg/mL BSA): […] BAS was added to 12.5 mL of 1 M Tris-HCl buffer, followed by diluting with purified water, and a resulting mixture was adjusted to a pH value of 7.4 with hydrochloric acid, and diluted to 500 mL. […]\nThree replicate wells were set for each sample, and the average value of the three replicate wells was the fluorescence value (F) of the compound to be tested. […] The IC50 value of the compound was calculated based on the inhibition rate and concentration using SPSS 20 software.",
  "data": [
    {"smiles": "CCC(C)C(=O)N1CCC(CC(=O)N2CCCN(C(=O)c3ccc(NC(=O)NC45CC6CC(C)(CC(C)(C6)C4)C5)c(F)c3)CC2)CC1", "note": "[CC-103, 1-((1r,3R,5S,7r)-3,5-dimethyladamantan-1-yl)-3-(2-fluoro-4-(4-(2-(1-(2-methylbutyryl)piperidin-4-yl)acetyl)-1,4-diaza-1-carbonyl)phenyl) urea]", "values": [
      {"measurement": "IC50", "value": 1, "unit": "nM"}
    ]}
  ]
}
